Source: US20160024487

Tests used:
[1] = tested on: Lys(Dnp)-ATNATQNPRIVGG-Lys(Abz)
[2] = tested on: Lys(Dnp)-ASTAVVIAGRIVGG-Lys(Abz)
[3] = tested on: Lys(Dnp)-ATNATAAPRIVGG-Lys(Abz)
[4] = tested on: Lys(Dnp)-ATNATAFPRIVGG-Lys(Abz)
[5] = tested on: Lys(Dnp)-ATNATAHPRIVGG-Lys(Abz)
[6] = tested on: Lys(Dnp)-ATNATASPRIVGG-Lys(Abz)
[7] = tested on: Lys(Dnp)-ATNATENPRIVGG-Lys(Abz)
[8] = tested on: Lys(Dnp)-ATNATFVPRIVGG-Lys(Abz)
[9] = tested on: Lys(Dnp)-ATNATGIPRIVGG-Lys(Abz)
[10] = tested on: Lys(Dnp)-ATNATHSPRIVGG-Lys(Abz)
[11] = tested on: Lys(Dnp)-ATNATIKPRIVGG-Lys(Abz)
[12] = tested on: Lys(Dnp)-ATNATIYPRIVGG-Lys(Abz)
[13] = tested on: Lys(Dnp)-ATNATKFPRIVGG-Lys(Abz)
[14] = tested on: Lys(Dnp)-ATNATMNPRIVGG-Lys(Abz)
[15] = tested on: Lys(Dnp)-ATNATMVPRIVGG-Lys(Abz)
[16] = tested on: Lys(Dnp)-ATNATNDPRIVGG-Lys(Abz)
[17] = tested on: Lys(Dnp)-ATNATNMPRIVGG-Lys(Abz)
[18] = tested on: Lys(Dnp)-ATNATPMPRIVGG-Lys(Abz)
[19] = tested on: Lys(Dnp)-ATNATPQPRIVGG-Lys(Abz)
[20] = tested on: Lys(Dnp)-ATNATQKPRIVGG-Lys(Abz)
[21] = tested on: Lys(Dnp)-ATNATQWPRIVGG-Lys(Abz)
[22] = tested on: Lys(Dnp)-ATNATSTPRIVGG-Lys(Abz)
[23] = tested on: Lys(Dnp)-ATNATTFPRIVGG-Lys(Abz)
[24] = tested on: Lys(Dnp)-ATNATTKPRIVGG-Lys(Abz)
[25] = tested on: Lys(Dnp)-ATNATTQPRIVGG-Lys(Abz)
[26] = tested on: Lys(Dnp)-ATNATVFPRIVGG-Lys(Abz)
[27] = tested on: Lys(Dnp)-ATNATVKPRIVGG-Lys(Abz)
[28] = tested on: Lys(Dnp)-ATNATVMPRIVGG-Lys(Abz)
[29] = tested on: Lys(Dnp)-ATNATWMPRIVGG-Lys(Abz)
[30] = tested on: Lys(Dnp)-ATNATWNPRIVGG-Lys(Abz)
[31] = tested on: Lys(Dnp)-ATNATX4X3PRIVGG-Lys(Abz), X4 = G, X3 = I
[32] = tested on: Lys(Dnp)-ATNATX4X3PRIVGG-Lys(Abz), X4 = G, X3 = Q
[33] = tested on: Lys(Dnp)-ATNATX4X3PRIVGG-Lys(Abz), X4 = G, X3 = R
[34] = tested on: Lys(Dnp)-ATNATX4X3PRIVGG-Lys(Abz), X4 = K, X3 = D
[35] = tested on: Lys(Dnp)-ATNATX4X3PRIVGG-Lys(Abz), X4 = N, X3 = K
[36] = tested on: Lys(Dnp)-ATNATX4X3PRIVGG-Lys(Abz), X4 = N, X3 = S
[37] = tested on: Lys(Dnp)-ATNATX4X3PRIVGG-Lys(Abz), X4 = P, X3 = P
[38] = tested on: Lys(Dnp)-ATNATX4X3PRIVGG-Lys(Abz), X4 = T, X3 = A
[39] = tested on: Lys(Dnp)-ATNATYMPRIVGG-Lys(Abz)
[40] = tested on: Lys(Dnp)-ATNATYVPRIVGG-Lys(Abz)
[41] = tested on: Lys(Dnp)-LSKNNAIEPRIVGG-Lys(Abz)

Substance: Human plasma purified alpha-thrombin
- FIIa kcat/KM [1]: 2000 M⁻¹ s⁻¹
- Specificity Ratio (FIIa/FXa) [1]: 3

Substance: Human plasma purified α-thrombin
- FIIa kcat/KM [2]: 0.31 M⁻¹ s⁻¹
- Functional Selectivity (Specificity*FIIa kcat/KM) [2]: 0.045
- Specificity Ratio (FIIa/FXa) [2]: 0
- kcat/KM [2]: 0.31 M⁻¹ s⁻¹
- FIIa kcat/KM [3]: 6200 M⁻¹ s⁻¹
- Functional Selectivity (Specificity*FIIa kcat/KM) [3]: 860000
- kcat/KM [3]: 6200 M⁻¹ s⁻¹
- FIIa kcat/KM [4]: 5900 M⁻¹ s⁻¹
- Functional Selectivity (Specificity*FIIa kcat/KM) [4]: 1.6e+06
- kcat/KM [4]: 5900 M⁻¹ s⁻¹
- FIIa kcat/KM [5]: 7400 M⁻¹ s⁻¹
- Specificity Ratio (FIIa/FXa) [5]: 52
- kcat/KM [5]: 7400 M⁻¹ s⁻¹
- FIIa kcat/KM [6]: 9100 M⁻¹ s⁻¹
- Specificity Ratio (FIIa/FXa) [6]: 29
- kcat/KM [6]: 9100 M⁻¹ s⁻¹
- FIIa kcat/KM [7]: 17 M⁻¹ s⁻¹
- Functional Selectivity (Specificity*FIIa kcat/KM) [7]: 88
- Specificity Ratio (FIIa/FXa) [7]: 5
- kcat/KM [7]: 17 M⁻¹ s⁻¹
- FIIa kcat/KM [8]: 7100 M⁻¹ s⁻¹
- Functional Selectivity (Specificity*FIIa kcat/KM) [8]: 700000
- kcat/KM [8]: 7100 M⁻¹ s⁻¹
- kcat/KM [9]: 1300 M⁻¹ s⁻¹
- kcat/KM [10]: 1300 M⁻¹ s⁻¹
- FIIa kcat/KM [11]: 24000 M⁻¹ s⁻¹
- Functional Selectivity (Specificity*FIIa kcat/KM) [11]: 4.7e+06
- kcat/KM [11]: 24000 M⁻¹ s⁻¹
- FIIa kcat/KM [12]: 18000 M⁻¹ s⁻¹
- Functional Selectivity (Specificity*FIIa kcat/KM) [12]: 1.5e+06
- kcat/KM [12]: 18000 M⁻¹ s⁻¹
- kcat/KM [13]: 750 M⁻¹ s⁻¹
- FIIa kcat/KM [14]: 8300 M⁻¹ s⁻¹
- Specificity Ratio (FIIa/FXa) [14]: 19
- kcat/KM [14]: 8300 M⁻¹ s⁻¹
- FIIa kcat/KM [15]: 17000 M⁻¹ s⁻¹
- Functional Selectivity (Specificity*FIIa kcat/KM) [15]: 2.8e+06
- kcat/KM [15]: 17000 M⁻¹ s⁻¹
- FIIa kcat/KM [16]: 3 M⁻¹ s⁻¹
- Functional Selectivity (Specificity*FIIa kcat/KM) [16]: 0.3
- Specificity Ratio (FIIa/FXa) [16]: 0
- kcat/KM [17]: 720 M⁻¹ s⁻¹
- FIIa kcat/KM [18]: 14000 M⁻¹ s⁻¹
- Specificity Ratio (FIIa/FXa) [18]: 14
- kcat/KM [18]: 14000 M⁻¹ s⁻¹
- FIIa kcat/KM [19]: 26000 M⁻¹ s⁻¹
- Functional Selectivity (Specificity*FIIa kcat/KM) [19]: 620000
- kcat/KM [19]: 26000 M⁻¹ s⁻¹
- FIIa kcat/KM [20]: 5300 M⁻¹ s⁻¹
- Specificity Ratio (FIIa/FXa) [20]: 108
- kcat/KM [20]: 5300 M⁻¹ s⁻¹
- kcat/KM [21]: 7800 M⁻¹ s⁻¹
- kcat/KM [22]: 1400 M⁻¹ s⁻¹
- kcat/KM [23]: 640 M⁻¹ s⁻¹
- FIIa kcat/KM [24]: 1100 M⁻¹ s⁻¹
- Specificity Ratio (FIIa/FXa) [24]: 81
- kcat/KM [24]: 1100 M⁻¹ s⁻¹
- FIIa kcat/KM [25]: 1400 M⁻¹ s⁻¹
- Specificity Ratio (FIIa/FXa) [25]: 82
- kcat/KM [25]: 1400 M⁻¹ s⁻¹
- Functional Selectivity (Specificity*FIIa kcat/KM) [26]: 1.3e+06
- FIIa kcat/KM [27]: 9900 M⁻¹ s⁻¹
- Functional Selectivity (Specificity*FIIa kcat/KM) [27]: 2.6e+06
- kcat/KM [27]: 9900 M⁻¹ s⁻¹
- FIIa kcat/KM [28]: 15000 M⁻¹ s⁻¹
- Functional Selectivity (Specificity*FIIa kcat/KM) [28]: 810000
- kcat/KM [28]: 15000 M⁻¹ s⁻¹
- FIIa kcat/KM [29]: 7200 M⁻¹ s⁻¹
- Specificity Ratio (FIIa/FXa) [29]: 37
- kcat/KM [29]: 7200 M⁻¹ s⁻¹
- FIIa kcat/KM [30]: 3200 M⁻¹ s⁻¹
- Specificity Ratio (FIIa/FXa) [30]: 145
- kcat/KM [30]: 3200 M⁻¹ s⁻¹
- FIIa kcat/KM [31]: 1300 M⁻¹ s⁻¹
- Specificity Ratio (FIIa/FXa) [31]: 15
- FIIa kcat/KM [32]: 1400 M⁻¹ s⁻¹
- Specificity Ratio (FIIa/FXa) [32]: 15
- FIIa kcat/KM [33]: 2700 M⁻¹ s⁻¹
- Specificity Ratio (FIIa/FXa) [33]: 21
- FIIa kcat/KM [34]: 1600 M⁻¹ s⁻¹
- Specificity Ratio (FIIa/FXa) [34]: 36
- FIIa kcat/KM [35]: 750 M⁻¹ s⁻¹
- Specificity Ratio (FIIa/FXa) [35]: 55
- FIIa kcat/KM [36]: 640 M⁻¹ s⁻¹
- Specificity Ratio (FIIa/FXa) [36]: 39
- FIIa kcat/KM [37]: 850 M⁻¹ s⁻¹
- Specificity Ratio (FIIa/FXa) [37]: 63
- FIIa kcat/KM [38]: 630 M⁻¹ s⁻¹
- Specificity Ratio (FIIa/FXa) [38]: 32
- FIIa kcat/KM [39]: 4300 M⁻¹ s⁻¹
- Specificity Ratio (FIIa/FXa) [39]: 27
- kcat/KM [39]: 4300 M⁻¹ s⁻¹
- kcat/KM [40]: 1700 M⁻¹ s⁻¹
- FIIa kcat/KM [41]: 13000 M⁻¹ s⁻¹
- Functional Selectivity (Specificity*FIIa kcat/KM) [41]: 170000
- Specificity Ratio (FIIa/FXa) [41]: 13
- kcat/KM [41]: 13000 M⁻¹ s⁻¹
